pIC50: −log10 of the molar value.
Target: Focal adhesion kinase 1 (Homo sapiens, UniProt Q05397)
Assay: Inhibition of human recombinant FAK

Amino acid sequences for entries named in this document (tags omitted).
UniProt Q05397, whole entry: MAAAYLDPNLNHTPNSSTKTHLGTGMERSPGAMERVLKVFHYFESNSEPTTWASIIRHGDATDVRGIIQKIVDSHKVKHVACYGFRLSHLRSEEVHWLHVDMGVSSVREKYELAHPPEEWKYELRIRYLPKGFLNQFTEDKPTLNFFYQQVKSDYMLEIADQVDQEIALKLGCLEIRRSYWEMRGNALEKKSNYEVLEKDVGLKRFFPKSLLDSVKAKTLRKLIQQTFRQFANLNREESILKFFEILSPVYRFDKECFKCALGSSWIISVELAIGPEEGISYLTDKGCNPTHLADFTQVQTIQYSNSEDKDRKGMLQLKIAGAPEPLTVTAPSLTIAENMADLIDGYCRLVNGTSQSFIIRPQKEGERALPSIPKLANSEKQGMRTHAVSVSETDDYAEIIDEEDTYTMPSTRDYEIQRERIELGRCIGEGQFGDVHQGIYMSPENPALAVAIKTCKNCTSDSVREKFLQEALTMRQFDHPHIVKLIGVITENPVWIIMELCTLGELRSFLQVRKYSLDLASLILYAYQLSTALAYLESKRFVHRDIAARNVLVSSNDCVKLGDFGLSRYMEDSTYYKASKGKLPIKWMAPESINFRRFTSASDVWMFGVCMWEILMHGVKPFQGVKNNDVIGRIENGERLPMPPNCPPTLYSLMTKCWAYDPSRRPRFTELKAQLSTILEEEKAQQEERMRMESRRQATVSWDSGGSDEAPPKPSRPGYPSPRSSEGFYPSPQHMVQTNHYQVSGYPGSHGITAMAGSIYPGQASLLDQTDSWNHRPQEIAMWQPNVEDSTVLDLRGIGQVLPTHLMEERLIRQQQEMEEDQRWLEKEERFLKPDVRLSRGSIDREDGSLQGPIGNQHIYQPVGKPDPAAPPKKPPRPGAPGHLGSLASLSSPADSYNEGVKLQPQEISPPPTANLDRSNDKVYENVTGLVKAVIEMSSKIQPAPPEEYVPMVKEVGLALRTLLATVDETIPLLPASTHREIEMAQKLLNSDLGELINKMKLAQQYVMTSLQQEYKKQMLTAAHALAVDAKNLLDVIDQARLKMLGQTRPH

pIC50: 4.40
SMILES: COc1cc(C2=C(c3cn(COCc4ccccc4)c4ccccc34)CNC2=O)cc(OC)c1OC

Reference: ChEMBL document CHEMBL1157465, “Design, synthesis, and biological evaluation of novel 3-aryl-4-(1H-indole-3yl)-1,5-dihydro-2H-pyrrole-2-ones as vascular endothelial growth factor receptor (VEGF-R) inhibitors” (J Med Chem, 2008)
